# Data from PubChem BioAssay AID504707 (The Scripps Research Institute Molecular Screening Center, 2011).
# This is a selection; strong and weak results do not stand in their true shares. The source made the active and inactive calls.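 The calls were made as follows: active = percent activation above the mean of all tested compounds plus 3 SD (cut at about 19% in these data); inactive = the rest.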
# Biological target: cAMP-dependent protein kinase type I-alpha regulatory subunit (Bos taurus) + cAMP-dependent protein kinase catalytic subunit beta (Mus musculus) (UniProt P00514+P68181)
# Test: activators of PKA-R1A holoenzyme, primary screen, biochemical, fluorescence polarization, Cy5-IP20, bovine R1A, mouse PKAc (AID 504707);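 also: higher means more PKAc released from R1A so a rise in polarization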
# Conditions: PKA-R1A dissociation, at 11.4 µM, active compounds read high, scaled: DMSO 0%, 113 µM cGMP 100%
row,Structure (SMILES),activation
1,CCC(=O)N(c1ccccc1)C1(COC)CCN(CCn2nnn(CC)c2=O)CC1,inactive: -3.66%
2,CCC(=O)N(c1ccccc1)C1(COC)CCN(CCc2cccs2)CC1,inactive: -0.9%
